Results taken from patent US4843074A.

Tests used:
[1] = system: carbachol-induced diarrhea; experiment: Inhibition of carbachol-induced diarrhea in mice; settings: male CF1 mice, i.p., carbachol i.p. 30 minutes after drug
[2] = system: Colonic Motility; experiment: Inhibition of colonic motility in anesthetized rats (carbachol responses); settings: anesthetized male rats, carbachol bolus 5 minutes after drug

With `CCN(CC)CCOC(=O)C1(C2CCCCC2)CCCCC1` the “Antag. Carbachol-ind. diarrhea, mice, ip, ED50” value [1] was 0.65 mg/lg and the “Colonic Motility, Anesth. Rat, i.v., IC50” value [2] was 0.33 mg/kg.
